{"sequences": {"note": "Chains of the proteins cited; added tags and fusions are not shown. Lines headed by an entry give the natural chain unless they say otherwise; changes in a name come on top. Residues count along the entry.", "UniProt O00238, 14-502": "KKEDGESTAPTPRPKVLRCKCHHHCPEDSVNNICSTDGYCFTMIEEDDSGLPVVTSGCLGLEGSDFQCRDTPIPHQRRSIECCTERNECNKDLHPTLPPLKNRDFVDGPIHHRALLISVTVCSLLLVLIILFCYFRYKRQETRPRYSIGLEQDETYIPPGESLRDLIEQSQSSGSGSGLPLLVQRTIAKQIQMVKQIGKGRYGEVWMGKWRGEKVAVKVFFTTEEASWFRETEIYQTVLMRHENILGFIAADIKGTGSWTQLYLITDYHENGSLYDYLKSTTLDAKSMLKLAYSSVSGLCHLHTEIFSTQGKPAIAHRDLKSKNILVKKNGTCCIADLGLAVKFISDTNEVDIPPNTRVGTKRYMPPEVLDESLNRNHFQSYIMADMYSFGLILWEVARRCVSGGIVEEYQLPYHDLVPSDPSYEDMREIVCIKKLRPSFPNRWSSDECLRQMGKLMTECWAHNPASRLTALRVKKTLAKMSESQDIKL", "UniProt P11802": "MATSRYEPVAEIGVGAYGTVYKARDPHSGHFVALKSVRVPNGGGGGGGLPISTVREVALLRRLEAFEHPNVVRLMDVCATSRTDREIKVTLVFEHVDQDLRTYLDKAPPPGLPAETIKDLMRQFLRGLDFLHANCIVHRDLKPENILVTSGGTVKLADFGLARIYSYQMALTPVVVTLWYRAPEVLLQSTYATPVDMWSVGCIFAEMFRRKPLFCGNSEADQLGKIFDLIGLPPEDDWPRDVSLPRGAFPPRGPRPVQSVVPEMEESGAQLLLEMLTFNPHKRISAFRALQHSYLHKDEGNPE", "UniProt O14757": "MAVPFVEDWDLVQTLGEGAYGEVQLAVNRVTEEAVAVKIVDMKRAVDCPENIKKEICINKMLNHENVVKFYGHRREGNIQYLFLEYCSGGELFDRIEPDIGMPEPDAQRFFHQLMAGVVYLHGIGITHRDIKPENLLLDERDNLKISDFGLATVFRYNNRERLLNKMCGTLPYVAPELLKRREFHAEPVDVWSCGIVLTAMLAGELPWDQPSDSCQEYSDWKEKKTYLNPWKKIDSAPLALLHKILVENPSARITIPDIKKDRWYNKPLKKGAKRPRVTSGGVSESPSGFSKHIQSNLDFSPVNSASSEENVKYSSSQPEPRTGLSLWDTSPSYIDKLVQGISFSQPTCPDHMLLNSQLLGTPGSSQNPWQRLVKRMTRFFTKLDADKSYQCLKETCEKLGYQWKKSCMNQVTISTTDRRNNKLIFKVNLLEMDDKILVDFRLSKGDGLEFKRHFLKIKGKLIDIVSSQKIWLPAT", "UniProt Q09013": "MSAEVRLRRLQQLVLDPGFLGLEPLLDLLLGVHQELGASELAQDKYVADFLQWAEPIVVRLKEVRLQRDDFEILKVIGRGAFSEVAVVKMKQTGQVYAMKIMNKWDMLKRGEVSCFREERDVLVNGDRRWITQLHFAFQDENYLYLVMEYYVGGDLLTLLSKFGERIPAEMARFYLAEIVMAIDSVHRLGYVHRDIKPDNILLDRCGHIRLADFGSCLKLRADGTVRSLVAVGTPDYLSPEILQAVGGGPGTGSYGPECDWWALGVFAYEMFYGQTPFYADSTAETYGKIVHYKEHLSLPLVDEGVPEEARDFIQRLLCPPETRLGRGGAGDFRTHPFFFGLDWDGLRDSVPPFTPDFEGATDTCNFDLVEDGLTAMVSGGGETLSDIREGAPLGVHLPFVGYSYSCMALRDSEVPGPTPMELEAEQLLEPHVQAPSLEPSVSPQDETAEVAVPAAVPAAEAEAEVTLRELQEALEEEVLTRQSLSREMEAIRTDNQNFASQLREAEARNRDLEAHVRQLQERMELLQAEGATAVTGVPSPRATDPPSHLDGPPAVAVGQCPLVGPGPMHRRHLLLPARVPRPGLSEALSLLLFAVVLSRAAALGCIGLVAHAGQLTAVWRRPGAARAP", "UniProt Q02779": "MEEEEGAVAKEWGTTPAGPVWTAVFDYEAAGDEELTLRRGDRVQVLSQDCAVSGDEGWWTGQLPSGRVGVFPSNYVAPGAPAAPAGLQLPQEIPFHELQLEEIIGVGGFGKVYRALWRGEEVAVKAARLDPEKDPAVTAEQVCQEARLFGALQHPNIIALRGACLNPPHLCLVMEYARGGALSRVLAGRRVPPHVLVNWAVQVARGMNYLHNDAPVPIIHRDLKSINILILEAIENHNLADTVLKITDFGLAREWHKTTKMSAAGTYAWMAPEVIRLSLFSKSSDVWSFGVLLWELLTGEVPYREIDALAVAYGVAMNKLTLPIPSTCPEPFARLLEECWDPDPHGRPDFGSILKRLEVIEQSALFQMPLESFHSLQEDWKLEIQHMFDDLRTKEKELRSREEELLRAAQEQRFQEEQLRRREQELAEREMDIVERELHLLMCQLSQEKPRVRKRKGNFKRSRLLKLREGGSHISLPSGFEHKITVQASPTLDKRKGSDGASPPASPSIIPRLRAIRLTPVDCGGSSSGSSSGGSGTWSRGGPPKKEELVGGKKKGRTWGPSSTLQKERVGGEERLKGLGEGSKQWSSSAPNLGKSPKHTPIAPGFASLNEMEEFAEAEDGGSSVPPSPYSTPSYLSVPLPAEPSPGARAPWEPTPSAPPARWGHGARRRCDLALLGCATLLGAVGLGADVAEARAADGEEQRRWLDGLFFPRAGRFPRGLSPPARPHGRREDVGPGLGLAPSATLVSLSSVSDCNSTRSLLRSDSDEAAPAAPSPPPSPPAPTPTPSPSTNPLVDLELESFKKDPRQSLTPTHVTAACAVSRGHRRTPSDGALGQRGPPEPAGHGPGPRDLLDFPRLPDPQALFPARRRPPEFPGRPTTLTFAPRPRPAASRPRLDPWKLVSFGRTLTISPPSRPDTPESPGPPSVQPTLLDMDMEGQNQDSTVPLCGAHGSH", "UniProt Q96Q40": "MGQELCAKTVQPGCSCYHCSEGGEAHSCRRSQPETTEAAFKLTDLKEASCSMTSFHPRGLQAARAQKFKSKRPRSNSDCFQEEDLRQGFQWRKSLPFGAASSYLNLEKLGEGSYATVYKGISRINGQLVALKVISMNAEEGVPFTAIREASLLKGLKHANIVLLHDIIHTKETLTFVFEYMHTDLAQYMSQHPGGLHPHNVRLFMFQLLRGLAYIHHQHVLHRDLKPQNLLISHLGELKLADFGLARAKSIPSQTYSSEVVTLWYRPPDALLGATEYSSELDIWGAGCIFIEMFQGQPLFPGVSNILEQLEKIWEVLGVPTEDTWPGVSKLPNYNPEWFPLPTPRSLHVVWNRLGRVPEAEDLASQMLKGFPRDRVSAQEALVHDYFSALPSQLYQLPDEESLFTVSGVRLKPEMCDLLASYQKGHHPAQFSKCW", "UniProt Q9NYY3": "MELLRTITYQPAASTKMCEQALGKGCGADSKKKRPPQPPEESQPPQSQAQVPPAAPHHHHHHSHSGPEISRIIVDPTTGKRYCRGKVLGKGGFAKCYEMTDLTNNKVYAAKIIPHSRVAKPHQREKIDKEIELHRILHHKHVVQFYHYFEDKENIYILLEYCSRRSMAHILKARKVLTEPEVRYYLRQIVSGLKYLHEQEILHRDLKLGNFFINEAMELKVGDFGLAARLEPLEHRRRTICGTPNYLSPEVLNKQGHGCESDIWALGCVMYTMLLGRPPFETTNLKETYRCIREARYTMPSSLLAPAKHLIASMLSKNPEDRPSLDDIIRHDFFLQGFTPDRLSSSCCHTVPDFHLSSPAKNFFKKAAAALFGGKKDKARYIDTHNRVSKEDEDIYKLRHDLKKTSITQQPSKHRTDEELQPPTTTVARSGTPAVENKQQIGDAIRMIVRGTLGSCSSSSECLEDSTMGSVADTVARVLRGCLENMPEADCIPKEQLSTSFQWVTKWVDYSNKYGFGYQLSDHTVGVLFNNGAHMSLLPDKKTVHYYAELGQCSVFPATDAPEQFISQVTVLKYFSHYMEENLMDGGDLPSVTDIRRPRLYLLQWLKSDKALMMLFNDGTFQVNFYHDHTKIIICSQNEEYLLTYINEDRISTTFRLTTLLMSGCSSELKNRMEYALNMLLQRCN", "UniProt Q9H0K1": "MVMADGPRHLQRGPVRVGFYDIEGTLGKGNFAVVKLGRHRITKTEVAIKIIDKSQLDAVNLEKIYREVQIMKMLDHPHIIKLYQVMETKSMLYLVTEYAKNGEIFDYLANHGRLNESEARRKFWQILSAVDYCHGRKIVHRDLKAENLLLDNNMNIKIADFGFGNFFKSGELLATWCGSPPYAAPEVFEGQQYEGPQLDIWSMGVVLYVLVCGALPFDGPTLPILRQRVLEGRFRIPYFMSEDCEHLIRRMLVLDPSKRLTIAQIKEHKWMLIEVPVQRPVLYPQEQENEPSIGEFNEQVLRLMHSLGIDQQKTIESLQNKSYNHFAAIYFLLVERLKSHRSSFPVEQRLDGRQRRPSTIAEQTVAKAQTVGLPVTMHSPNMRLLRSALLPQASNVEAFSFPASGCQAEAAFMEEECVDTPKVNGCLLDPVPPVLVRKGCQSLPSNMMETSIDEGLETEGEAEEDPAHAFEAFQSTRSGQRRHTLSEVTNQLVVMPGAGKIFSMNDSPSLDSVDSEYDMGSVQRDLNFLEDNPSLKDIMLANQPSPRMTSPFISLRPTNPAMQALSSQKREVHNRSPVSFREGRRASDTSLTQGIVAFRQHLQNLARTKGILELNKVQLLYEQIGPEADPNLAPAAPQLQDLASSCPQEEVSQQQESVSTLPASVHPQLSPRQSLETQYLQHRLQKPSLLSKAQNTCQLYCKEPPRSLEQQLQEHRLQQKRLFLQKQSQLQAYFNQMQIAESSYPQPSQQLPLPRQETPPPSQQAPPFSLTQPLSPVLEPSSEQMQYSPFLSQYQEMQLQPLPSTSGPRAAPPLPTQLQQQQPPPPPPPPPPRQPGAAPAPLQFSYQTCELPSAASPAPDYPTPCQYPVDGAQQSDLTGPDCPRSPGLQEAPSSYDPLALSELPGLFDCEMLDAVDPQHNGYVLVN", "UniProt Q16620, 32-822": "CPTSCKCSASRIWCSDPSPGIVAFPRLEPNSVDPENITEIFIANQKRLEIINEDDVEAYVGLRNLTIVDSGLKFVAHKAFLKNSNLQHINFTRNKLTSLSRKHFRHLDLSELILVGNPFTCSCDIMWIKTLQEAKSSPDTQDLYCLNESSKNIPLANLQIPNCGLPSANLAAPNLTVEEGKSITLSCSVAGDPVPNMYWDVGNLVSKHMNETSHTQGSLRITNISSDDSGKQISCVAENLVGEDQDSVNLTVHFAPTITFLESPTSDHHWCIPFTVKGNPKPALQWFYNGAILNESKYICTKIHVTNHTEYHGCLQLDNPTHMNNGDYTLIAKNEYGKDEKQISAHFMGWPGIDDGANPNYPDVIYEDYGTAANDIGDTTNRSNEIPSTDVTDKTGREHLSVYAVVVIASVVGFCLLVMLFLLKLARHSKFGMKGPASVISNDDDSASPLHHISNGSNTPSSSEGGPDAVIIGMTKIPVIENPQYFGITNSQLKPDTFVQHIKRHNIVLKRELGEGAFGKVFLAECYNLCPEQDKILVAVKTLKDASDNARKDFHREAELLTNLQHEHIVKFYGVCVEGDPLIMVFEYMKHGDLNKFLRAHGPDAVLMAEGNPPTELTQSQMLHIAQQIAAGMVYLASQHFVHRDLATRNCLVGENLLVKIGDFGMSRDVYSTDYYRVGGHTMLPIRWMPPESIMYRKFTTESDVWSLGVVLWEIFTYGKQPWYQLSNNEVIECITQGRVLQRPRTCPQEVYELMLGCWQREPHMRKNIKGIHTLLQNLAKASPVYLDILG", "UniProt Q86Y07": "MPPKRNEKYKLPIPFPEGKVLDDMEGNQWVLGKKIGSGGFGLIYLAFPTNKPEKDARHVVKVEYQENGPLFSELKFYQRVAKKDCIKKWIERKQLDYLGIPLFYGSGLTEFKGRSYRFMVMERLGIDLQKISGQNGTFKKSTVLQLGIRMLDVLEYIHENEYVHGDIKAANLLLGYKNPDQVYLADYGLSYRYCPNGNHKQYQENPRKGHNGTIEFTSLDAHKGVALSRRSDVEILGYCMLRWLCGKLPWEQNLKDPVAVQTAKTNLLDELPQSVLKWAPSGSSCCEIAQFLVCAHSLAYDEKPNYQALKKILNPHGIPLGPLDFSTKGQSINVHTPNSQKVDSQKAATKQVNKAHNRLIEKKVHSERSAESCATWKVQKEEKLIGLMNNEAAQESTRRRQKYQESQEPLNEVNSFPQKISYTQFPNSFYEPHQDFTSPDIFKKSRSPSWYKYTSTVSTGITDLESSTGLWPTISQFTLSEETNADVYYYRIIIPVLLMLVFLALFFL", "UniProt Q8WU08": "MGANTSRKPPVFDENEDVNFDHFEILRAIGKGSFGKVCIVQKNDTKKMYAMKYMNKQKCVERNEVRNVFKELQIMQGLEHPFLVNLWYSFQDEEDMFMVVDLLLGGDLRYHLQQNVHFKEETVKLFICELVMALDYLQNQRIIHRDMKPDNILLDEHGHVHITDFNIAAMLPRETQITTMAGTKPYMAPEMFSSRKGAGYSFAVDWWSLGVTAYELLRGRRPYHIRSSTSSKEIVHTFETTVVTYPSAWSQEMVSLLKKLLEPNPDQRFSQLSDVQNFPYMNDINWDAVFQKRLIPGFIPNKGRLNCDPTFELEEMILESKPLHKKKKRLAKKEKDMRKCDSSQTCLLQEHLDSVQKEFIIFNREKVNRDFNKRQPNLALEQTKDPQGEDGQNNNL"}, "source": "paper PMC11472320", "about": "“Computationally Driven Discovery of a BCR-ABL1 Kinase Inhibitor with Activity in Multidrug-Resistant Chronic Myeloid Leukemia” (Journal of Medicinal Chemistry, 2024)", "key": {"[1]": {"tested_on": "403 non-mutant kinases", "details": "of 403 non-mutant kinases, 1000 nM"}, "[2]": {"biological_target": "ACVRL1 (Homo sapiens, UniProt P37023)", "assay": "biochemical", "details": "read-out: Percent Control"}, "[3]": {"biological_target": "ADCK4 (Homo sapiens, UniProt Q96D53)", "assay": "biochemical", "details": "read-out: Percent Control"}, "[4]": {"biological_target": "ARK5 (Homo sapiens, UniProt O60285)", "assay": "biochemical", "details": "read-out: Percent Control"}, "[5]": {"biological_target": "BMPR1B (Homo sapiens, UniProt O00238)", "assay": "biochemical", "details": "read-out: Percent Control"}, "[6]": {"biological_target": "CAMKK2 (Homo sapiens, UniProt Q96RR4)", "assay": "biochemical", "details": "read-out: Percent Control"}, "[7]": {"biological_target": "CDK4-cyclinD1 (Homo sapiens, UniProt P11802)", "assay": "biochemical", "details": "read-out: Percent Control"}, "[8]": {"biological_target": "CHEK1 (Homo sapiens, UniProt O14757)", "assay": "biochemical", "details": "read-out: Percent Control"}, "[9]": {"biological_target": "CLK3 (Homo sapiens, UniProt P49761)", "assay": "biochemical", "details": "read-out: Percent Control"}, "[10]": {"biological_target": "CSK (Homo sapiens, UniProt P41240)", "assay": "biochemical", "details": "read-out: Percent Control"}, "[11]": {"biological_target": "CSNK1G3 (Homo sapiens, UniProt Q9Y6M4)", "assay": "biochemical", "details": "read-out: Percent Control"}, "[12]": {"biological_target": "DMPK (Homo sapiens, UniProt Q09013)", "assay": "biochemical", "details": "read-out: Percent Control"}, "[13]": {"biological_target": "DRAK1 (Homo sapiens, UniProt Q9UEE5)", "assay": "biochemical", "details": "read-out: Percent Control"}, "[14]": {"biological_target": "DYRK1A (Homo sapiens, UniProt Q13627)", "assay": "biochemical", "details": "read-out: Percent Control"}, "[15]": {"biological_target": "FYN (Homo sapiens, UniProt P06241)", "assay": "biochemical", "details": "read-out: Percent Control"}, "[16]": {"biological_target": "GRK3 (Homo sapiens, UniProt P35626)", "assay": "biochemical", "details": "read-out: Percent Control"}, "[17]": {"biological_target": "GRK7 (Homo sapiens, UniProt Q8WTQ7)", "assay": "biochemical", "details": "read-out: Percent Control"}, "[18]": {"biological_target": "HIPK2 (Homo sapiens, UniProt Q9H2X6)", "assay": "biochemical", "details": "read-out: Percent Control"}, "[19]": {"biological_target": "IGF1R (Homo sapiens, UniProt P08069)", "assay": "biochemical", "details": "read-out: Percent Control"}, "[20]": {"biological_target": "LRRK2(G2019S) (Homo sapiens, UniProt Q5S007, G2019S)", "assay": "biochemical", "details": "read-out: Percent Control"}, "[21]": {"biological_target": "MAK (Homo sapiens, UniProt P20794)", "assay": "biochemical", "details": "read-out: Percent Control"}, "[22]": {"biological_target": "MAP3K2 (Homo sapiens, UniProt Q9Y2U5)", "assay": "biochemical", "details": "read-out: Percent Control"}, "[23]": {"biological_target": "MAP4K3 (Homo sapiens, UniProt Q8IVH8)", "assay": "biochemical", "details": "read-out: Percent Control"}, "[24]": {"biological_target": "MET (Homo sapiens, UniProt P08581)", "assay": "biochemical", "details": "read-out: Percent Control"}, "[25]": {"biological_target": "MET(Y1235D) (Homo sapiens, UniProt P08581, Y1235D)", "assay": "biochemical", "details": "read-out: Percent Control"}, "[26]": {"biological_target": "MLK2 (Homo sapiens, UniProt Q02779)", "assay": "biochemical", "details": "read-out: Percent Control"}, "[27]": {"biological_target": "MYLK4 (Homo sapiens, UniProt Q86YV6)", "assay": "biochemical", "details": "read-out: Percent Control"}, "[28]": {"biological_target": "NIK (Homo sapiens, UniProt Q99558)", "assay": "biochemical", "details": "read-out: Percent Control"}, "[29]": {"biological_target": "PFTAIRE2 (Homo sapiens, UniProt Q96Q40)", "assay": "biochemical", "details": "read-out: Percent Control"}, "[30]": {"biological_target": "PIK3CB (Homo sapiens, UniProt P42338)", "assay": "biochemical", "details": "read-out: Percent Control"}, "[31]": {"biological_target": "PIM3 (Homo sapiens, UniProt Q86V86)", "assay": "biochemical", "details": "read-out: Percent Control"}, "[32]": {"biological_target": "PKMYT1 (Homo sapiens, UniProt Q99640)", "assay": "biochemical", "details": "read-out: Percent Control"}, "[33]": {"biological_target": "PLK1 (Homo sapiens, UniProt P53350)", "assay": "biochemical", "details": "read-out: Percent Control"}, "[34]": {"biological_target": "PLK2 (Homo sapiens, UniProt Q9NYY3)", "assay": "biochemical", "details": "read-out: Percent Control"}, "[35]": {"biological_target": "RET(V804M) (Homo sapiens, UniProt P07949, V804M)", "assay": "biochemical", "details": "read-out: Percent Control"}, "[36]": {"biological_target": "RIPK2 (Homo sapiens, UniProt O43353)", "assay": "biochemical", "details": "read-out: Percent Control"}, "[37]": {"biological_target": "ROCK2 (Homo sapiens, UniProt O75116)", "assay": "biochemical", "details": "read-out: Percent Control"}, "[38]": {"biological_target": "SIK2 (Homo sapiens, UniProt Q9H0K1)", "assay": "biochemical", "details": "read-out: Percent Control"}, "[39]": {"biological_target": "SNRK (Homo sapiens, UniProt Q9NRH2)", "assay": "biochemical", "details": "read-out: Percent Control"}, "[40]": {"biological_target": "TRKB (Homo sapiens, UniProt Q16620)", "assay": "biochemical", "details": "read-out: Percent Control"}, "[41]": {"biological_target": "VRK2 (Homo sapiens, UniProt Q86Y07)", "assay": "biochemical", "details": "read-out: Percent Control"}, "[42]": {"biological_target": "WNK1 (Homo sapiens, UniProt Q9H4A3)", "assay": "biochemical", "details": "read-out: Percent Control"}, "[43]": {"biological_target": "YANK1 (Homo sapiens, UniProt Q8WU08)", "assay": "biochemical", "details": "read-out: Percent Control"}}, "data": [{"compound": "COc1cc2c(Nc3ccc(Cl)c(OC)n3)c(C#N)cnc2cc1OCCON1CCN(C)CC1", "note": "[16a, 4-((5-Chloro-6-methoxypyridin-2-yl)amino)-6-methoxy-7-(2-((4-methylpiperazin-1-yl)oxy)ethoxy)quinoline-3-carbonitrile]", "values": [{"measurement": "Number of Hits S(1)", "setting": "[1]", "value": 30}, {"measurement": "Number of Hits S(10)", "setting": "[1]", "value": 79}, {"measurement": "Number of Hits S(35)", "setting": "[1]", "value": 131}, {"measurement": "remaining activity at 1 µM", "setting": "[2]", "value": 100, "unit": "%"}, {"measurement": "remaining activity at 1 µM", "setting": "[3]", "value": 52, "unit": "%"}, {"measurement": "remaining activity at 1 µM", "setting": "[4]", "value": 74, "unit": "%"}, {"measurement": "remaining activity at 1 µM", "setting": "[5]", "value": 100, "unit": "%"}, {"measurement": "remaining activity at 1 µM", "setting": "[6]", "value": 32, "unit": "%"}, {"measurement": "remaining activity at 1 µM", "setting": "[7]", "value": 70, "unit": "%"}, {"measurement": "remaining activity at 1 µM", "setting": "[8]", "value": 6.9, "unit": "%"}, {"measurement": "remaining activity at 1 µM", "setting": "[9]", "value": 36, "unit": "%"}, {"measurement": "remaining activity at 1 µM", "setting": "[10]", "value": 0.8, "unit": "%"}, {"measurement": "remaining activity at 1 µM", "setting": "[11]", "value": 97, "unit": "%"}, {"measurement": "remaining activity at 1 µM", "setting": "[12]", "value": 3.3, "unit": "%"}, {"measurement": "remaining activity at 1 µM", "setting": "[13]", "value": 91, "unit": "%"}, {"measurement": "remaining activity at 1 µM", "setting": "[14]", "value": 40, "unit": "%"}, {"measurement": "remaining activity at 1 µM", "setting": "[15]", "value": 11, "unit": "%"}, {"measurement": "remaining activity at 1 µM", "setting": "[16]", "value": 76, "unit": "%"}, {"measurement": "remaining activity at 1 µM", "setting": "[17]", "value": 61, "unit": "%"}, {"measurement": "remaining activity at 1 µM", "setting": "[18]", "value": 64, "unit": "%"}, {"measurement": "remaining activity at 1 µM", "setting": "[19]", "value": 96, "unit": "%"}, {"measurement": "remaining activity at 1 µM", "setting": "[20]", "value": 37, "unit": "%"}, {"measurement": "remaining activity at 1 µM", "setting": "[21]", "value": 100, "unit": "%"}, {"measurement": "remaining activity at 1 µM", "setting": "[22]", "value": 0.55, "unit": "%"}, {"measurement": "remaining activity at 1 µM", "setting": "[23]", "value": 0.75, "unit": "%"}, {"measurement": "remaining activity at 1 µM", "setting": "[24]", "value": 41, "unit": "%"}, {"measurement": "remaining activity at 1 µM", "setting": "[25]", "value": 80, "unit": "%"}, {"measurement": "remaining activity at 1 µM", "setting": "[26]", "value": 42, "unit": "%"}, {"measurement": "remaining activity at 1 µM", "setting": "[27]", "value": 100, "unit": "%"}, {"measurement": "remaining activity at 1 µM", "setting": "[28]", "value": 18, "unit": "%"}, {"measurement": "remaining activity at 1 µM", "setting": "[29]", "value": 65, "unit": "%"}, {"measurement": "remaining activity at 1 µM", "setting": "[30]", "value": 96, "unit": "%"}, {"measurement": "remaining activity at 1 µM", "setting": "[31]", "value": 84, "unit": "%"}, {"measurement": "remaining activity at 1 µM", "setting": "[32]", "value": 18, "unit": "%"}, {"measurement": "remaining activity at 1 µM", "setting": "[33]", "value": 100, "unit": "%"}, {"measurement": "remaining activity at 1 µM", "setting": "[34]", "value": 42, "unit": "%"}, {"measurement": "remaining activity at 1 µM", "setting": "[35]", "value": 59, "unit": "%"}, {"measurement": "remaining activity at 1 µM", "setting": "[36]", "value": 79, "unit": "%"}, {"measurement": "remaining activity at 1 µM", "setting": "[37]", "value": 8.6, "unit": "%"}, {"measurement": "remaining activity at 1 µM", "setting": "[38]", "value": 3, "unit": "%"}, {"measurement": "remaining activity at 1 µM", "setting": "[39]", "value": 69, "unit": "%"}, {"measurement": "remaining activity at 1 µM", "setting": "[40]", "value": 69, "unit": "%"}, {"measurement": "remaining activity at 1 µM", "setting": "[41]", "value": 46, "unit": "%"}, {"measurement": "remaining activity at 1 µM", "setting": "[42]", "value": 60, "unit": "%"}, {"measurement": "remaining activity at 1 µM", "setting": "[43]", "value": 100, "unit": "%"}]}]}
